Measurements as given in patent US9402810B2, “Pouch containing nicotine in free salt form” (TILLCE AB, priority 2011, dated 2016).

Assay: Storage stability, nicotine degradation products by reversed-phase liquid chromatography
Conditions: storage at 25° C./60% RH

SMILES: CN1CCCC1c1cccnc1.O.O.O=C(O)C(O)C(O)C(=O)O (stereo not shown) [nicotine bitartrat dihydrate, nicotine bitartrate dihydrate]
- stability of the nicotine salt in the product: stable
